# Measured affinities in a library of Ab-95 light chain variants

Values reported by Engelhart et al. 2022, doi:10.1038/s41597-022-01779-4 (FLAb copy).

Antigen: PDVDLGDISGINAS, a 14-residue peptide of the SARS-CoV-2 spike HR2 region.

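In library AAYL52, one, two or three CDR residues were substituted; doubles and triples were drawn at random. AlphaSeq pools MATa yeast showing the antibodies with MATalpha yeast showing the peptide. Mating (16 h, 30 °C) was followed by selection of diploids and sequencing of their barcodes. The ratio of observed to expected reads was calibrated, replicate by replicate, on BCL2-family standards whose Kd was known from biolayer interferometry. There are three technical replicates.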

Each scFv is VH, a 15-residue (Gly4Ser)3 linker, VL, as in the parent Ab-95, and differs from it in the CDRs of the light chain only.
VH: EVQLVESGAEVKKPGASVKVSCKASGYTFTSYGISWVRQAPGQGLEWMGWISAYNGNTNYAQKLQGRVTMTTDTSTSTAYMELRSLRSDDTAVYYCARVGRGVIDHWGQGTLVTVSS
VL: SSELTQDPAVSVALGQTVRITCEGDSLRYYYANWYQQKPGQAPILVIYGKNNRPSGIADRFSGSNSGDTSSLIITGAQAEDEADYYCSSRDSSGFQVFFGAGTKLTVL

Changes read parent residue, position, new residue, counted from the first residue of the VL shown. Affinities are written as log10 Kd with Kd in nM; a lower number is a better binder. The mean shown is taken over the replicates in which the pair was detected. "ND" means that the variant was in the library but no mating with the target was seen in that replicate; the authors take this as a sign of poor binding, and no number exists.

changes,"replicates, log10 nM","mean, log10 nM",signal with controls
G24Q/N51A/R53T,ND / 4.35 / ND,4.35,2/9 (3.28)
S26H/G49W/D91T,3.77 / 3.86 / 2.54,3.39,2/9 (3.34)
S26E/N33H/G94Y,ND / ND / 4.10,4.10,2/9 (3.92)
E23T/S26T/Q96T,2.37 / 2.16 / 1.57,2.04,5/9 (4.02)
Y30V/G49Y/F95E,ND / 4.59 / ND,4.59,1/9 (3.88)
K50R/N51M/R53A,ND / 3.54 / ND,3.54,4/9 (4.08)
R28M/F98M,3.51 / 3.45 / 3.40,3.45,2/9 (3.95)
E23S/L27P/K50R,3.69 / 5.07 / ND,4.38,1/9 (3.80)
G24W/Y31Q/G49C,3.62 / 4.99 / 4.04,4.22,5/9 (4.44)
R53Q/S55H/G94R,ND / ND / ND,ND,2/9 (3.15)
G49C/P54I/S89K,ND / ND / ND,ND,3/9 (3.92)
A32D/N52K/S93D,ND / ND / ND,ND,0/9
N33E/S92V,2.99 / 5.45 / ND,4.22,5/9 (4.58)
Y29M/R53F/S88H,ND / ND / 4.03,4.03,1/9 (4.48)
E23C/S92D/Q96F,2.56 / 2.97 / 2.76,2.76,1/9 (3.86)
Y30E/S55D/V97H,2.12 / 1.38 / 1.51,1.67,3/9 (3.54)
G24D/D25A/Q96F,3.46 / ND / 3.30,3.38,0/9
Y30A/G49L/S93D,4.44 / 5.44 / ND,4.94,1/9 (3.33)
Y29D/Y30W/S89T,3.31 / 2.67 / 2.68,2.88,2/9 (3.93)
G49K/K50E/R53F,ND / ND / ND,ND,0/9
D25G/G49Y/S93I,3.38 / 3.31 / ND,3.34,1/9 (4.05)
R28T/Y29V/Y30L,4.48 / 4.23 / 3.64,4.12,4/9 (4.96)
E23Q/D25F/S89E,3.91 / ND / ND,3.91,0/9
A32H/K50F/R53K,4.12 / ND / ND,4.12,1/9 (3.74)
E23C/N51P/V97S,ND / ND / ND,ND,1/9 (3.13)
Y31S/S88R/R90V,2.00 / 2.15 / 1.74,1.96,4/9 (4.04)
S26M/S89M/S92F,2.87 / 3.78 / 2.92,3.19,2/9 (4.03)
N51R/R53F/V97F,ND / 3.91 / 3.91,3.91,2/9 (2.96)
A32M/S92I/V97C,4.36 / ND / 3.81,4.09,3/9 (3.99)
L27H/D91C/G94D,3.64 / ND / 4.80,4.22,5/9 (4.13)
Y29M/S92W,2.97 / 2.71 / 2.91,2.86,2/9 (4.16)
R28E/D91M/F95D,3.28 / 3.26 / 3.42,3.32,2/9 (4.11)
N51C/R90A/G94F,4.09 / ND / ND,4.09,0/9
R28T/N52M/P54D,3.70 / 4.07 / 3.04,3.60,1/9 (3.14)
D25F/S26D/Q96S,3.63 / 3.07 / 2.85,3.18,3/9 (4.24)
N51E/G94N/F98S,ND / ND / ND,ND,4/9 (3.20)
G49P/S88R/Q96Y,3.89 / 3.59 / ND,3.74,4/9 (4.62)
G24R/R28W/G94K,ND / ND / ND,ND,0/9

For reference, 2 entries of the list once more:

{"changes": "G49K/K50E/R53F", "replicates, log10 nM": "ND / ND / ND", "mean, log10 nM": "ND", "signal with controls": "0/9"}
{"changes": "Y29D/Y30W/S89T", "replicates, log10 nM": "3.31 / 2.67 / 2.68", "mean, log10 nM": "2.88", "signal with controls": "2/9 (3.93)"}

Parent in this assay: reference entry 2.31, copy in this library 2.25. Empty control strains, which show no peptide, gave a signal in 28% of pairings with library AAYL52; the median was 3.91 and 95% of these signals were weaker than 2.90. No background was subtracted. For each scFv, signals with the empty controls are counted beside the result, with their mean in brackets.